Biological target: 5-hydroxytryptamine receptor 1A (Rattus norvegicus, UniProt P19327)
Assay: Binding affinity to 5HT1A receptor in rat cortex membrane
Type: cell membranes

Amino acid sequences for entries named in this document (tags omitted).
UniProt P19327, whole entry: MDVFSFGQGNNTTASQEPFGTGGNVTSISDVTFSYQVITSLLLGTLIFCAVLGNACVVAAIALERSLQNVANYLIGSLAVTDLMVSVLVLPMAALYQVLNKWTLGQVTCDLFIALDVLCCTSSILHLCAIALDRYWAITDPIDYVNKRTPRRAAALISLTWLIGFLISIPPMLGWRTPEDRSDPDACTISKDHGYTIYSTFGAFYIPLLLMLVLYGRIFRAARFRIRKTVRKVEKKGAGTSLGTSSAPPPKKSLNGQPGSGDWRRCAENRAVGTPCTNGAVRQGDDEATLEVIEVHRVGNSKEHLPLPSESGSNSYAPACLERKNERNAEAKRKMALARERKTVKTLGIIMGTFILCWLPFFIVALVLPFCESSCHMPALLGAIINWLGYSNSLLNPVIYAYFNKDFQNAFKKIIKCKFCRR

NCCc1c[nH]c2ccc(O)cc12 [SEROTONIN]
Ki: 1.86 nM
